{"sequences": {"note": "Sequences of proteins named here, by UniProt entry; tags and fusion partners are left off. Residues count along the entry.", "UniProt Q63380, 1-617": "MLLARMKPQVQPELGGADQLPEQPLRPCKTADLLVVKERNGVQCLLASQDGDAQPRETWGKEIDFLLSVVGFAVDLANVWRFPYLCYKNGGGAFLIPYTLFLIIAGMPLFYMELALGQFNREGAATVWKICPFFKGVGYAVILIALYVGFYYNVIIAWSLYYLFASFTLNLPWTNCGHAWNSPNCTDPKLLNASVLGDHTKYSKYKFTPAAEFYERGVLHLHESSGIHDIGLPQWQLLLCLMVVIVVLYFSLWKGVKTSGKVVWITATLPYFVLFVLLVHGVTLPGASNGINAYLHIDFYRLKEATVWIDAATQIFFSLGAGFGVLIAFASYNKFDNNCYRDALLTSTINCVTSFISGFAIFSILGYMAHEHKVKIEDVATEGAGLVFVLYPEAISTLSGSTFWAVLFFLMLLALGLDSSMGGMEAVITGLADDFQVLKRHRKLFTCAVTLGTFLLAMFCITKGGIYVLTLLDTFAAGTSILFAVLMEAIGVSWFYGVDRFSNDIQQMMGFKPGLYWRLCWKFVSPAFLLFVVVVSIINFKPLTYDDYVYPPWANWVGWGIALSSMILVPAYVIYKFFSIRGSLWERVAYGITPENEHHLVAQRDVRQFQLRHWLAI"}, "source": "patent US7098206B2", "about": "“Pharmaceutically active morpholinol” (SmithKline Beecham Corporation, priority 1998, dated 2006)", "target": "T1, noradrenaline (NA) uptake, synaptosomes from rat hypothalamus (Rattus norvegicus, UniProt Q63380)", "T1 construct": "Synaptosomes for use in obtaining in vitro uptake data were prepared from hypothalamus or striatum by gently homogenizing the tissue; from tissue; host or cells: rat hypothalamus synaptosomes", "experiment": "In vitro synaptosomal [3H]-noradrenaline uptake", "format": "biochemical"}
{"smiles": "CN(C)CCCN1c2ccccc2CCc2ccccc21", "note": "[Imipramine]", "values": [{"measurement": "IC50", "result": 72, "unit": "nM"}]}
